Columns and labels:
[1] = 25° C.
[2] = Single-stage extraction of 2% aqueous bioproduct solutions with extractant (Examples 1-9); format: physicochemical
Experimental: Extraction of various bioproducts with an extractant composed of 80% 1-butene and 20% dimethylether (DME) 100 grams (g) of aqueous solutions of various bioproducts were prepared. Bioproduct initial concentration was 2%. Each of these bioproduct aqueous solutions was extracted in a pressure vessel by mixing with 100 g of extractant composed of 80% 1-butene (the hydrocarbon) and 20% dimethylether (the oxygenated compound) at ambient temperature. The amount of formed extract and formed raffinate and the concentration (conc.) of the bioproduct in each were determined. Theses concentrations were used to calculate the bioproduct distribution coefficient (DC). Also determined was the concentration of DME in the raffinate. Table 2 compares the found distribution coefficients to those of extracting with an extractant composed of 100% DME.

[3] = 25° C.; cited from earlier work
[4] = Effect of DME/1-butene ratio in the extractant on n-butanol extraction (Example 10); format: physicochemical; settings: 1:1 w/w, room temperature; for DC: 2% n-butanol in water; for Butanol extraction yield: single stage
Experimental: Extractant to aqueous solution weight/weight ratio was 1 to 1. Distribution coefficients, extractant concentration in the raffinate and extraction yield (single stage extraction at the selected extractant/aqueous solution weight/weight ratio) were determined and are summarized in Table 3.

[5] = extractant 20% DME + 80% 1-butene
[6] = extractant 40% DME + 60% 1-butene
[7] = extractant 60% DME + 40% 1-butene
[8] = extractant 80% DME + 20% 1-butene

n-butanol
n-butanol/water weight ratio in saturated aqueous solution [1]: about 0.079 | Raffinate Bioproduct conc. (%) ([2]; 100 g of 2% aqueous solution mixed with 100 g extractant of 80% 1-butene + 20% DME, ambient temperature, raffinate phase): 0.77% | Extract Bioproduct conc. (%) ([2]; 100 g of 2% aqueous solution mixed with 100 g extractant of 80% 1-butene + 20% DME, pressure vessel, ambient temperature, extract phase): 1.27% | DC (bioproduct distribution coefficient) ([2]; extract/raffinate, extractant 80% 1-butene + 20% DME, ambient temperature (Table 1)): 1.63 | Distribution coefficient, 20% DME + 80% 1-Butene ([2]; extractant 20% DME + 80% 1-butene (Table 2)): 1.63 | Distribution coefficient, 100% DME ([2]; extractant 100% DME (Table 2)): 2.92 | n-butanol content of saturated aqueous solution [3]: about 7.3 wt % | DC [4, 5]: 1.66 | DC [4, 6]: 2.22 | DC [4, 7]: 2.71 | DC [4, 8]: 3.02 | DC ([4]; extractant 100% DME): 2.92 | Butanol extraction yield [4, 5]: 58.81% | Butanol extraction yield [4, 6]: 63.49% | Butanol extraction yield [4, 7]: 65.47% | Butanol extraction yield [4, 8]: 64.68% | Butanol extraction yield ([4]; extractant 100% DME): 57.98%

— patent US20180087023A1, “METHOD OF PRODUCING BIOPRODUCTS” (White Dog Labs, Inc., priority 2015, published 2018)
